Values quoted from earlier work as cited in patent US20130023585A1, “Neuraminidase Inhibitors” (TSRL, INC., priority 2010, published 2013).

Test system: influenza virus neuraminidase
Conditions: cited from earlier work

In the case of `CCC(CC)O[C@@H]1C=C(C(=O)O)C[C@H](NC(=N)N)[C@H]1NC(C)=O` [GOC, 4-guanidinio oseltamivir carboxylate], the “fold more potent inhibitor in vitro” value is listed as “approximately 2 fold” and the IC50 (read-out: IC50, inhibitor of influenza virus neuraminidase) is listed as 0.9 nM.
